# scFv variants of Ab-14 (light chain) against a SARS-CoV-2 spike peptide

The target is the same throughout: PDVDLGDISGINAS, from the HR2 region of SARS-CoV-2 spike.

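AAYL50 was designed without a model: most single CDR substitutions and a random sample of double and triple ones. In AlphaSeq, yeast of one mating type display the scFv and yeast of the other type display the target. Mating (16 h, 30 °C) was followed by selection of diploids and sequencing of their barcodes. The ratio of observed to expected reads was calibrated, replicate by replicate, on BCL2-family standards whose Kd was known from biolayer interferometry. Mating was done three times.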

Ab-14 is the parent antibody, in scFv form: VH, then a 15-residue (Gly4Ser)3 linker, then VL. The heavy chain is unchanged in all variants.
VH: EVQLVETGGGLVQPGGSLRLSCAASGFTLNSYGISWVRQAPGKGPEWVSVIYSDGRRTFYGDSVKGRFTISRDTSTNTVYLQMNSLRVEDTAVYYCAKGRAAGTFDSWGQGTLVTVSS
VL: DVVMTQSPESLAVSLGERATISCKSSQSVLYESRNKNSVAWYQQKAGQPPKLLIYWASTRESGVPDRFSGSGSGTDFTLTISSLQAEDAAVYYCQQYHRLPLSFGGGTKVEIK

Substitutions are numbered in sequence along the VL above, starting at 1 (not Kabat).
Only single mutants are listed, position by position.
The read-out is the apparent dissociation constant on a log10 scale (nM): the lower, the stronger.
A mean of the replicates is given; it leaves out those without a signal.
"not detected" means that the variant was in the library but no mating with the target was seen in any replicate; the authors take this as a sign of poor binding, and no number exists.
Nonspecific signal, from three strains lacking the peptide, appeared in 18% of pairings of library AAYL50, centred on 4.19 (5% of these signals below 2.99); values are not corrected for it.
For reference, the parent read 0.65 as the reference entry and 1.68 as a member of this library.

changes,"log10 Kd (nM), mean",replicates with signal
N35T,1.49,3 of 3
N35D,0.84,3 of 3
N35K,4.93,1 of 3
N35I,1.27,3 of 3
N35A,0.97,3 of 3
N35Y,1.49,3 of 3
N35V,1.28,3 of 3
N35H,1.51,3 of 3
N35W,1.47,3 of 3
N35P,2.39,3 of 3
N35G,1.23,3 of 3
N35F,3.11,1 of 3
N35C,1.46,3 of 3
N35M,1.87,3 of 3
K36P,0.74,3 of 3
K36Y,1.37,3 of 3
K36S,0.27,3 of 3
K36G,1.29,3 of 3
K36N,not detected,0 of 3
K36Q,2.31,3 of 3
K36I,0.56,3 of 3
K36T,0.57,3 of 3
K36A,1.24,3 of 3
K36W,1.66,3 of 3
K36R,0.86,3 of 3
K36M,0.57,3 of 3
K36L,1.47,3 of 3
K36V,not detected,0 of 3
K36H,1.11,3 of 3
K36C,1.37,3 of 3
K36E,0.26,3 of 3
N37K,1.82,3 of 3
N37Q,1.59,3 of 3
N37C,1.75,3 of 3
N37T,2.91,3 of 3
N37H,1.43,3 of 3
N37L,2.06,3 of 3
N37I,2.33,3 of 3
N37W,1.57,3 of 3
N37E,1.81,3 of 3
N37S,1.42,3 of 3
N37M,1.42,3 of 3
N37F,1.25,3 of 3
N37R,1.53,3 of 3
N37A,1.37,3 of 3
N37G,1.86,3 of 3
N37D,0.91,3 of 3
N37P,1.43,3 of 3
S38R,3.56,3 of 3
S38T,3.18,3 of 3
S38L,not detected,0 of 3
S38I,not detected,0 of 3
S38C,2.55,3 of 3
S38F,not detected,0 of 3
S38G,1.73,3 of 3
S38M,2.93,1 of 3
S38H,3.06,3 of 3
S38V,3.13,1 of 3

The first 5 variants above that were never detected:

| changes | log10 Kd (nM), mean | replicates with signal |
|---|---|---|
| K36N | not detected | 0 of 3 |
| K36V | not detected | 0 of 3 |
| S38L | not detected | 0 of 3 |
| S38I | not detected | 0 of 3 |
| S38F | not detected | 0 of 3 |

Source: Engelhart et al. 2022 (doi:10.1038/s41597-022-01779-4), MIT Lincoln Laboratory and A-Alpha Bio; data file from the FLAb repository.